Literature values as cited in paper PMC10531749.

The chains behind the UniProt entries cited, without tags or fusion partners. Residues count along the entry.
UniProt P17931, 2-250: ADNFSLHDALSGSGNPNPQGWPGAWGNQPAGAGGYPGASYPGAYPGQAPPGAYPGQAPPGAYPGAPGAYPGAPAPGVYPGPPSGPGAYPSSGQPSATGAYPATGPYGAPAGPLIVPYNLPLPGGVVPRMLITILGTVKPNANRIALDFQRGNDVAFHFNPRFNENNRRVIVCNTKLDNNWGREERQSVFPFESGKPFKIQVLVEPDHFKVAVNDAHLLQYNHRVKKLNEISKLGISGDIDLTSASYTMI
UniProt P17931, 114-250: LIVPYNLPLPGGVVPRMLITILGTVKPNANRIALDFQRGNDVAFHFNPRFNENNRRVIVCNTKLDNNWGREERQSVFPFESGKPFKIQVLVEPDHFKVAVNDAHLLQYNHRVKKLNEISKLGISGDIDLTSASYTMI
UniProt P48061, 22-89: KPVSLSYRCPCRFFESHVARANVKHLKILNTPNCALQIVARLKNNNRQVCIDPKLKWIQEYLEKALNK

How the values were obtained:
[1] = target: Galectin-3 (Homo sapiens) (UniProt P17931); assay: surface plasmon resonance
[2] = target: Galectin-3 CRD (Homo sapiens) (UniProt P17931); assay: surface plasmon resonance

CXCL12 (from UniProt P48061)
Kd [1]: 0.08 µM | Kd [2]: 0.034 µM
